Data set [1] deals with T1, BACE1 (Homo sapiens, UniProt P56817). The data set is described as follows: BACE1 cell-free assay (BACE1 enzyme assay). The class given is biochemical. From the text:
BACE1 Cell-Free Assay (BACE1 Enzyme Assay)
The determination of BACE1 activity can be either measured by using an enzymatic cell-free fluorescence assay (BACE1 cell free, table 2) or by a whole cell assay using HEK293 APP cells (Cellular Aβ-lowering, table 2). Both assays are suitable to determine BACE1 inhibition.

Sequences of proteins named here, by UniProt entry; tags and fusion partners are left off. Residues count along the entry.
UniProt P56817, 46-501: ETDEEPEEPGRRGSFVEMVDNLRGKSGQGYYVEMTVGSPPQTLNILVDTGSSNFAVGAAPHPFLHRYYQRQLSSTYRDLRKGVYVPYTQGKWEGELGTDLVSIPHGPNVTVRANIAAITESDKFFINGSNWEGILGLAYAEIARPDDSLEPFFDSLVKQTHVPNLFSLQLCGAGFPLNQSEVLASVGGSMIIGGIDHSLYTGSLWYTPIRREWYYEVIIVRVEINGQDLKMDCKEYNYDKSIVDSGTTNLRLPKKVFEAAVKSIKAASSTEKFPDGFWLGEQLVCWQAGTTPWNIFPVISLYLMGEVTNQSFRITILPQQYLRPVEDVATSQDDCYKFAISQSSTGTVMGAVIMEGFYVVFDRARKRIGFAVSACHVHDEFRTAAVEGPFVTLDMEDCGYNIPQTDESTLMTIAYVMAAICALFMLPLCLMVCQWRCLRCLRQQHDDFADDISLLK
UniProt P08183, whole entry: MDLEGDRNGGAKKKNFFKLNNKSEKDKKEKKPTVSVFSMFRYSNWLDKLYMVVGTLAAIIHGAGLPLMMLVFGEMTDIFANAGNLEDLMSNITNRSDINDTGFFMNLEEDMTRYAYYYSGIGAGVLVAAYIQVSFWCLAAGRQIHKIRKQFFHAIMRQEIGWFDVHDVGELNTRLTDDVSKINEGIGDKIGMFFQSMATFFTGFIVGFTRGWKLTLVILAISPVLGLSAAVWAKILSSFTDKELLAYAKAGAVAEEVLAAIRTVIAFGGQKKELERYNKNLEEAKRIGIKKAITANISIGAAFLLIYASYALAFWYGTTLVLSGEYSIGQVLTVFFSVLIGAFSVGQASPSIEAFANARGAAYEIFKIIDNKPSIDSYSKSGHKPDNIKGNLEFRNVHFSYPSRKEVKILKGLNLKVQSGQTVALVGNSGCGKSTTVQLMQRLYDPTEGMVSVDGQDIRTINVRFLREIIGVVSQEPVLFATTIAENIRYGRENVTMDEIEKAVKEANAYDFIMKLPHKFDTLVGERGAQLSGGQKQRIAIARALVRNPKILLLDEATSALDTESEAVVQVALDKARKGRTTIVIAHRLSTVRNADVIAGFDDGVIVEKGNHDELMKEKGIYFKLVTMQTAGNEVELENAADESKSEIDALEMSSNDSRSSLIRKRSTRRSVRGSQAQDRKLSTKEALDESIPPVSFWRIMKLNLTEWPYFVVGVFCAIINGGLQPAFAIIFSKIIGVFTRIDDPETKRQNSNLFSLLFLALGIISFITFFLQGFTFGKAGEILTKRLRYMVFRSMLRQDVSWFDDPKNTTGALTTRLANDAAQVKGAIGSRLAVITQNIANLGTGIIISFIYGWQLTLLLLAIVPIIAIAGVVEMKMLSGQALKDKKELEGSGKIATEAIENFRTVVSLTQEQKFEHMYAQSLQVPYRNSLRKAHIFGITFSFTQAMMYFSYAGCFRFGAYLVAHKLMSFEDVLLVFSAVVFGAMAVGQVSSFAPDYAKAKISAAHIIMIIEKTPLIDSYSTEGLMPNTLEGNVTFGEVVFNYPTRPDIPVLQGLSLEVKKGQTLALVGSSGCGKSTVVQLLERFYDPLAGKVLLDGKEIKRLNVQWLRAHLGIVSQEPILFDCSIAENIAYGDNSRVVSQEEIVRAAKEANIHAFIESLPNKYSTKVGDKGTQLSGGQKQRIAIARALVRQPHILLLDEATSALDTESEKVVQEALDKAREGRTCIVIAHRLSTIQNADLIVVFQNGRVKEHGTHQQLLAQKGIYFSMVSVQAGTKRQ

The next data set deals with T2, BACE2 (Homo sapiens, UniProt Q9Y5Z0).
T2 sequence (Q9Y5Z0 63-518): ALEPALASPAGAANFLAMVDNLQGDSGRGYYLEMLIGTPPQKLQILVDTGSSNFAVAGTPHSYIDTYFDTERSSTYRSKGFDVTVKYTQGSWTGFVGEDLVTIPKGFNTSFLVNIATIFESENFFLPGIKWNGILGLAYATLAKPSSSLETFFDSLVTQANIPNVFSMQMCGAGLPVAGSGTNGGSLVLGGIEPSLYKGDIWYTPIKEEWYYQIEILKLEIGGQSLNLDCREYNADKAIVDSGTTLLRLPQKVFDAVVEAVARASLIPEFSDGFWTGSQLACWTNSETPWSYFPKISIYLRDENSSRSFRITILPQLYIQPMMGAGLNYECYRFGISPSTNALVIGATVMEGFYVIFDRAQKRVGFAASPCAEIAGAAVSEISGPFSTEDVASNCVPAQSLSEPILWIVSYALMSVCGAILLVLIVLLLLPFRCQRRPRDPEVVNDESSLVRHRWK
The data set is described as follows: BACE2 cell-free assay (BACE2 enzyme assay). The following applies: BACE2 IC50 divided by BACE1 IC50, cell free assays. It is filed as biochemical. From the text: BACE2 Cell-Free Assay (BACE2 Enzyme Assay)
Selectivity versus related targets is important in terms of safety of a drug candidate. BACE2 is a close homolog of BACE1. BACE2 was recently reported to play a crucial role in pigmentation of the skin by processing pigment cell-specific melanocyte protein (PMEL). (Proc Natl Acad Sci USA. 2013 Jun. 25; 110(26):10658-63. doi: 10.1073/pnas.1220748110. Epub 2013 Jun. 10). It is believed that PMEL contributes in melanogenesis. Therefore, selectivity versus BACE2 is advantageous when it comes to pigmentation of the skin. The selectivity ratio of BACE2/BACE1 IC50 was calculated by dividing the BACE2 IC50 value by the BACE1 IC50 value determined each in the cell free assay. […] This implies a 3-fold improvement of example 1 compared to comparators 4 and 5.

The target of another data set is P-gp (Homo sapiens, UniProt P08183). The data set is described as follows: P-gp transport assay (human). It is filed as in vitro ADME. The following applies: not told, read-out: higher P-gp efflux ratio than example 1. From the text:
P-Gp Transport Assay (Human and Mouse) (P-Gp Assay)
In the assay of the P-gp efflux ratio ER as described hereinabove, a compound with ER<2.5 is regarded most suitable. In addition, compounds with low hERG channel binding are suitable as well.

In data set [2] the target is T1, BACE1. As to the kind of experiment: Cellular Aβ-lowering assay (Abeta 40 AlphaLISA, HEK293 APP cells). It is filed as cell-based. Details: endogenous in cells; host or cells: HEK293 APP cells. The following applies: Aβ40 in supernatant, read-out: BACE1 cell act. Aβ40 IC50. How it is done:
Cellular Aβ-Lowering Assay:
The Abeta 40 AlphaLISA Assay can be used. The HEK293 APP cells were seeded in 96 well Microtiter plates in cell culture medium (Iscove's, plus 10% (v/v) fetal bovine serum, penicillin/streptomycin) to about 80% confluency and the compounds were added at a 3× concentration in ⅓ volume of culture medium (final DMSO concentration was kept at 1% v/v). After 18-20 hrs incubation at 37° C. and 5% CO2 in a humidified incubator, the culture supernatants were harvested for the determination of AP 40 concentrations using Perkin-Elmer Human Amyloid beta 1-40 (high specificity) Kit (Cat#AL275C).
In a Perkin-Elmer White Optiplate-384 (Cat#6007290), 2 ul culture supernatants were combined with 2 μl of a 10× AlphaLISA Anti-hAP Acceptor beads+Biotinylated Antibody Anti-Aβ 1-40 Mix (50 μg/mL/5 nM). […] Light Emission at 615 nm was then recorded using EnVision-Alpha Reader. Levels of AP 40 in the culture supernatants were calculated as percentage of maximum signal (cells treated with 1% DMSO without inhibitor). The IC50 value were calculated using the Excel XLfit software. […]
The determination of BACE1 activity can be either measured by using an enzymatic cell-free fluorescence assay (BACE1 cell free, table 2) or by a whole cell assay using HEK293 APP cells (Cellular Aβ-lowering, table 2). […]
For orientation: Alpha assays give light when donor and acceptor beads are brought close together.

pIC50: −log10 of the molar value.

Broadly, the pIC50 is the IC50 on a negative log10 scale, so that one unit is a factor of ten. `Cc1cc(C#N)cnc1C(=O)Nc1ccc(F)c([C@]2(C)C[C@@H](C(F)(F)F)OC(N)=N2)n1` [Comparator 5]: the negative logarithm of the IC50 (pIC50) against BACE1 [1] was 7.41; on BACE1 [2], 8.40. For the same molecule, on BACE2, the “BACE2/BACE1 IC50 ratio” value stood at 0.6. For the same molecule, the efflux ratio on P-gp worked out at 2.
